Earlier results in patent publication US20040132648A1, “Remedies and/or preventives for conformational diseases” (priority 2001, published 2004).

Test system: peptidase
Settings: specified in Peptide Chemistry (1996) 249-252; cited from earlier work

Substance: Arg-PACAP27
- resistance against peptidase in vivo: extremely strong resistance

Substance: Arg-PACAP38
- resistance against peptidase in vivo: extremely strong resistance
